Measured affinities in a library of Ab-95 light chain variants

Antigen: PDVDLGDISGINAS, a 14-residue peptide of the SARS-CoV-2 spike HR2 region.

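The parent was found by panning a naive human phage display library on the peptide. In library AAYL52, one, two or three CDR residues were substituted; doubles and triples were drawn at random. In AlphaSeq, yeast of one mating type display the scFv and yeast of the other type display the target. Mating (16 h, 30 °C) was followed by selection of diploids and sequencing of their barcodes. The ratio of observed to expected reads was calibrated, replicate by replicate, on BCL2-family standards whose Kd was known from biolayer interferometry. Each pool was mated in three replicate cultures.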

Each scFv is VH, a (GGGGS)3 linker, VL, as in the parent Ab-95, and differs from it in the CDRs of the light chain only.
VH: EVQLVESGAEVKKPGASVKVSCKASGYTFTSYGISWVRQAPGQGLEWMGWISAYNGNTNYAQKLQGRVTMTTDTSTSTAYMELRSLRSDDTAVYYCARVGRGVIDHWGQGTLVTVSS
VL: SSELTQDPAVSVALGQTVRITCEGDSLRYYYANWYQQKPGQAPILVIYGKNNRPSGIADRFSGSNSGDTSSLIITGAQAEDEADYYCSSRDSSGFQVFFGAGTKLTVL

Variants are written as CDR1, CDR2 and CDR3 of the light chain (limits as in the source). Parent: EGDSLRYYYAN, GKNNRPS, SSRDSSGFQVF. All variants listed here change S55 of the VL, counted from its first residue. The Kd shown is the geometric mean over detected replicates; a lower Kd is a better binder. "nd" means that the variant was in the library but no mating with the target was seen in any replicate; the authors take this as a sign of poor binding, and no number exists. Parent in this assay: reference entry 200 nM, copy in this library 180 nM.

For EGDSLRYYYAN | GKDNLPI | SSRDSSGFQVF, the assay gave 15 µM (3 of 3 replicates). The variant EGDSLRYYYAN | GKENRPR | SSRDSSGFAVF showed 3.4 µM (3 of 3 replicates). For EGDSLRYYYAN | GKNNRPW | SSRDSSGFQRM, the assay gave 1.0 µM (2 of 3 replicates). The variant EGDSLKYYYAN | GKNTRPV | SSRDSSGFQVF gave 120 nM (3 of 3 replicates). With EGDSLRYYYAN | GKNNRPN | SSRDSSGFRVN the result was 200 nM (3 of 3 replicates). The variant EGDRLRYYYAV | GKNNRPF | SSRDSSGFQVF gave 1.8 µM (1 of 3 replicates). For EGDSLRYYYAN | GKNNEPH | SSWDSSGFQVF, the assay gave nd (0 of 3 replicates). With EGDSLRYDYAN | GKNNHPG | SSRDSSGFQVF the result was 1.0 µM (3 of 3 replicates).

With EGDSTRYYYAN | GKNNRPT | SSGDSSGFQVF the result was 1.4 µM (2 of 3 replicates). With EGDSLLYYYAN | GKNNRPT | SSRDSSGFQVF the result was 130 nM (3 of 3 replicates). With EGDSLRYYYAN | GKNNRPR | SSRDSPGFQVF the result was 1.2 µM (3 of 3 replicates). The variant EGDSLRYYYAT | GKNNRPP | SSRDSSGFQVF gave 5.3 µM (1 of 3 replicates). With EGDSLRYYYAN | GKNTRPH | SSRPSSGFQVF the result was 47 µM (1 of 3 replicates). The variant EGVSLRYYYAN | GKNNRPR | TSRDSSGFQVF showed nd (0 of 3 replicates). The variant EGDSLRYYYQS | GKNNRPR | SSRDSSGFQVF showed 5.2 µM (2 of 3 replicates). The variant EGDSRRQYYAN | GKNNRPK | SSRDSSGFQVF showed 1.8 µM (1 of 3 replicates).

The variant EGDSLRYYYAN | AKNKRPF | SSRDSSGFQVF gave 4.8 µM (2 of 3 replicates). The variant EGDSLHYWYAN | GKNNRPY | SSRDSSGFQVF showed 590 nM (3 of 3 replicates). For EGDSLRYYDAN | GKNNRCE | SSRDSSGFQVF, the assay gave 7.5 nM (3 of 3 replicates). The variant EGDSLRYIYAN | GKNNRPQ | SSRDSLGFQVF showed 2.1 µM (3 of 3 replicates). For EGDSLRYYYCN | GKSNRPC | SSRDSSGFQVF, the assay gave 1.3 µM (3 of 3 replicates). The variant EQDSLRYYYAN | GKNNRPV | SSRDSSGFQVP gave 17 nM (3 of 3 replicates). The variant EVDSLRYYYAN | GKNNRPL | SSRDSSIFQVF gave 2.3 µM (2 of 3 replicates). For EGDSLRYYYFN | GKNNRPF | SDRDSSGFQVF, the assay gave 7.3 µM (1 of 3 replicates).

The variant EGDSLRYYYAN | GKNNRPY | SSDWSSGFQVF showed 1.5 µM (2 of 3 replicates). For EGDSIRYYYAN | GKNNRPG | SSRDSSGFQVH, the assay gave 1.6 µM (3 of 3 replicates). For EGDSLRYYVAN | GKNNRPH | ESRDSSGFQVF, the assay gave 160 nM (3 of 3 replicates). With EGDSLRYYYAM | GKNNRPE | SSRFSSGFQVF the result was 350 nM (3 of 3 replicates). With EGDSFRYYYAN | GKNNRPK | SSEDSSGFQVF the result was 15 µM (2 of 3 replicates). With EGDSLRYIYAN | GKNNRPE | SSRDSSGFHVF the result was 27 nM (3 of 3 replicates). The variant ELDSLRYYYAQ | GKNNRPA | SSRDSSGFQVF gave nd (0 of 3 replicates). With EGDSLRYYYAV | GKNDRPH | SSRDSSGFQVF the result was 3.4 µM (1 of 3 replicates).

The variant EGDSLRYYYAN | GKNNRPV | SSRDSSGFQVF gave 280 nM (3 of 3 replicates). The variant EGDSLRYYYAN | GKVNRPM | SSFDSSGFQVF gave 13 µM (1 of 3 replicates). With EGDSLRYYYAN | GKNNRDA | SSRDSSGFCVF the result was 5.5 µM (1 of 3 replicates). With EGDSLRYYYAN | GKNNRPV | SSRVSSGFQVL the result was 1.0 µM (3 of 3 replicates). The variant EGDSLRYYYAN | GKNNRPI | SSADSSGFQVF gave nd (0 of 3 replicates). For EGDCLRYYYAN | GKNNRPG | SSRDSSGFQVF, the assay gave 5.1 µM (3 of 3 replicates). The variant EGDSLRYYYDN | GKNNRPF | SPRDSSGFQVF gave 5.1 µM (2 of 3 replicates). The variant EGDSLRYYYAN | GWNNRPK | SSRDSPGFQVF gave nd (0 of 3 replicates).

Repeated from above, the 4 best binders with a signal in all replicates:

With EGDSLRYYDAN | GKNNRCE | SSRDSSGFQVF the result was 7.5 nM (3 of 3 replicates).
With EQDSLRYYYAN | GKNNRPV | SSRDSSGFQVP the result was 17 nM (3 of 3 replicates).
With EGDSLRYIYAN | GKNNRPE | SSRDSSGFHVF the result was 27 nM (3 of 3 replicates).
With EGDSLKYYYAN | GKNTRPV | SSRDSSGFQVF the result was 120 nM (3 of 3 replicates).

Background: pairings of library AAYL52 with three empty control strains gave a value in 28% of cases (median 8.2 µM, 5th percentile 800 nM). Values in that range, when seen in few replicates, are hard to tell from nonspecific mating.

Values reported by Engelhart et al. 2022, doi:10.1038/s41597-022-01779-4 (FLAb copy).